Source: PubChem BioAssay (National Center for Advancing Translational Sciences (NCATS))
DT40 TDP1 no CPT: qHTS for Inhibitors of human tyrosyl-DNA phosphodiesterase 1 (TDP1): qHTS in cells in absence of CPT. 420,000 tested, 15% active. Potency, µM (doses to about 46.2 µM), for the others: top-dose activity change, negative = growth inhibition, usual class: inhibitors. DT40 Tdp1-/- hTDP1 cells, no CPT, ATP luminescence, 48 h; note: potency is the fitted concentration of half-maximal effect; % is set by controls: 0 for no effect and ±100 for the full control effect; nearly all actives have a fitted effect of over 55% in size
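Camptothecin absent (DMSO only). Human TDP1-complemented DT40 knockout cells, 400 cells/well, 37 °C for minimum 48 hr; ATP measured via CellTiter-Glo, 30 min dark incubation, luminescence.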
miR-21 FLuc: raises the signal of a miR-21 reporter | AID 2288 | 340,000 tested, under 10 active | Potency, µM (series often up to 38.3 µM), without a hit: at the highest dose reporter change, positive = more light | HeLa miR-21 FLuc reporter, luciferase, 48 h; active = well fitted rising curve with a large enough effect; inconclusive = small, poorly fitted or top-dose-only effect; inactive = no such curve, though single readings can be large or run the other way;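 further: % of control where 0% means no effect; miR-21 action dims this reporter so a rising signal means less miR-21 action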
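Using DMEM plus 10% FBS, HeLa miR-21-FLuc cells are incubated with test compounds (final up to about 40uM) for 48 hours; firefly luciferase signal is then imaged following reagent-mediated lysis.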
uPA surface inh: cell surface uPA generation inhibition; cell surface uPA generation assay, qHTS; Potency, µM (doses to about 38.3 µM), inactives show at the top dose activity change, negative = inhibition, actives largely listed as inhibitors; 330,000 tested, 0.31% active; active = well fitted inhibition curve with a large enough effect; inconclusive = small, poorly fitted or top-dose-only effect; inactive = no such curve, though single readings can be large or run the other way; tested in mouse RAW 264.7 cells; note: potency is the fitted concentration of half-maximal effect; % is set by controls: 0 for no effect and ±100 for the full control effect; nearly all actives have a fitted effect of over 55% in size
DT40 TDP1 CPT: DT40-hTDP1 cell growth loss with CPT; chicken DT40 Tdp1-/-;hTDP1 cells + 20 nM CPT, ATP luminescence, 48 h; Potency, µM (titrated, usually from 46.2 µM), inactives show at the highest dose activity change, negative = growth inhibition, usual class: inhibitors; 420,000 tested, 12% active; note: potency is the fitted concentration of half-maximal effect; % is set by controls: 0 for no effect and ±100 for the full control effect; nearly all actives have a fitted effect of over 55% in size
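Cell growth measured by CellTiter-Glo luminescence after a minimum 48 h, 37 C compound exposure with 20 nM CPT in Tdp1-knockout DT40 cells stably expressing hTDP1, seeded 400/well; qHTS titration format.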
TDP1 inh: blocks human tyrosyl-DNA phosphodiesterase 1. Q9NUW8. recombinant TDP1, AlphaScreen DNA substrate cleavage. Potency, µM (series often up to 130 µM), for the others: at the top dose activity change, negative = inhibition, hits mostly inhibitors. 350,000 tested, 0.28% active. AID 485290; note: potency is the fitted concentration of half-maximal effect; % is set by controls: 0 for no effect and ±100 for the full control effect; nearly all actives have a fitted effect of over 40% in size
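Recombinant human Tdp1 (E. coli-expressed, 1 nM final) preincubated with compounds 15 min at room temperature, then 5'-biotin/3'-phosphotyrosine-FITC DNA substrate (15 nM final) added for 5 min. AlphaScreen beads (10 ug/ml final) added 10 min; cleavage lowers signal.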
* = called active by the depositor; u = inconclusive; x = not tested or not shown. Shown are actives, neighbours in structure and some others; about 16% of the full set was active somewhere. Unless noted, calls come from the whole dose curve; as a rule, active = well fitted curve in the direction sought with a large enough effect; inconclusive = small, poorly fitted or top-dose-only effect, or another doubt; inactive = no such curve, though single readings can be large; an effect the other way counts as inactive or inconclusive.

Preview (five entries):
Value order – DT40 TDP1 no CPT	miR-21 FLuc	uPA surface inh	DT40 TDP1 CPT	TDP1 inh
#1 CC(=O)c1cccc(NC(=O)C2CCCN2S(=O)(=O)c2cccc3cccnc23)c1 (stereo not given)
 : -27.7%	-22.1%	0.6%	u	0.0%
#2 O=C(CN1CCN(Cc2ccc(F)cc2)CC1)Nc1ccccc1F
 : -0.7%	-3.2%	-9.3%	-0.9%	x
#3 O=C(N/N=C/c1ccc2ncccc2c1)c1cccc([N+](=O)[O-])c1
 : -15.3%	-3.8%	1.4%	4.8%	-4.3%
#4 CN(C)c1ccc(/C=C/c2ccnc3ccccc23)c(N)c1
 : 0.631µM*	x	x	0.631µM*	x
#5 CN(C)c1ccc(/C=C\C=C/c2ccnc3ccccc23)cc1
 : 0.1µM*	x	x	0.0794µM*	x

The whole of this part, from the start:
Value order – DT40 TDP1 no CPT	miR-21 FLuc	uPA surface inh	DT40 TDP1 CPT	TDP1 inh
#1 CC(=O)c1cccc(NC(=O)C2CCCN2S(=O)(=O)c2cccc3cccnc23)c1 (stereo not given)
 : -27.7%	-22.1%	0.6%	u	0.0%
#2 O=C(CN1CCN(Cc2ccc(F)cc2)CC1)Nc1ccccc1F
 : -0.7%	-3.2%	-9.3%	-0.9%	x
#3 O=C(N/N=C/c1ccc2ncccc2c1)c1cccc([N+](=O)[O-])c1
 : -15.3%	-3.8%	1.4%	4.8%	-4.3%
#4 CN(C)c1ccc(/C=C/c2ccnc3ccccc23)c(N)c1
 : 0.631µM*	x	x	0.631µM*	x
#5 CN(C)c1ccc(/C=C\C=C/c2ccnc3ccccc23)cc1
 : 0.1µM*	x	x	0.0794µM*	x
#6 CN(C)c1ccc(/C=C/c2ccnc3ccccc23)c(F)c1
 : 12.6µM*	x	x	u	x
#7 CN(C)c1ccc(CCc2ccnc3ccccc23)cc1
 : 14.1µM*	x	x	12.6µM*	x
#8 Cc1sc2nc(-c3ccc(Br)cc3)oc(=O)c2c1C
 : -6.9%	0.3%	-4.0%	-2.8%	x
#9 OC[C@@H]1CN(Cc2cccc(C(F)(F)F)c2)C[C@H](n2cnc3c(NCc4ccc(F)cc4)ncnc32)O1
 : 9.2µM*	x	x	18.4µM*	x
#10 OC[C@@H]1CN(Cc2ccco2)C[C@H](n2cnc3c(NCc4ccc(F)cc4)ncnc32)O1
 : -6.0%	x	x	-2.4%	x
#11 OC[C@@H]1CN(Cc2cccc(C(F)(F)F)c2)C[C@H](n2cnc3c(NCc4ccco4)ncnc32)O1
 : u	x	x	18.4µM*	x
#12 OC[C@@H]1CN(Cc2ccc(F)cc2)C[C@H](n2cnc3c(NCc4ccco4)ncnc32)O1
 : u	x	x	-11.8%	x
#13 OC[C@@H]1CN(Cc2ccc(Cl)cc2)C[C@H](n2cnc3c(NCc4ccc(F)cc4)ncnc32)O1
 : 18.4µM*	x	x	18.4µM*	x
#14 COc1ccc(Oc2ncc3nc(-c4cc(F)cc(F)c4)c(=O)n(C4CC4)c3n2)cc1
 : -4.9%	x	x	u	x
#15 O=C(NCc1ccc(Cl)cc1)C1CCCN(c2ncnc3c2nc2n3CCCCC2)C1 (stereo not given)
 : u	0.0%	-8.9%	u	1.7%
#16 O=C(Nc1ccc(Cl)cc1)C1CCCN(c2ncnc3c2nc2n3CCCCC2)C1 (stereo not given)
 : 18.4µM*	21.2%	-3.6%	23.1µM*	1.7%
#17 Cc1ccc(NC(=O)C2CCCN(c3ncnc4c3nc3n4CCCCC3)C2)cc1Cl (stereo not given)
 : 20.6µM*	3.8%	-12.0%	u	6.1%
#18 Cc1cccc(NC(=O)C2CCCN(c3ncnc4c3nc3n4CCCCC3)C2)n1 (stereo not given)
 : 7.31µM*	14.9%	5.5%	10.3µM*	x
#19 COc1ccc2c(c1)C(=O)[C@H](OC(=O)NCc1ccc3c(c1)OCO3)[C@@H](c1ccc(OC)c(Br)c1)O2
 : x	x	x	x	4.4%
#20 CC(C)c1ccccc1NC(=O)c1cccc(NC(=O)c2ccccc2)c1
 : u	3.1%	-1.5%	16.4µM*	7.0%
#21 COc1ccc(C(=O)Nc2cccc(C(=O)NCc3ccccc3)c2)cc1
 : u	-3.0%	-19.9%	20.6µM*	-2.7%
#22 Cc1ccn2cc(C(=O)Nc3cccc(C(=O)NC4CC4)c3)nc2c1
 : 16.4µM*	x	-15.3%	u	-14.5%
#23 Cc1ccc(C(=O)Nc2cccc(C(=O)NCc3ccccc3)c2)cc1
 : -24.3%	2.2%	10µM*	u	8.2%
#24 CC(=O)Nc1cccc(-c2cn3ccc(C)cc3n2)c1
 : -8.4%	-26.6%	u	-16.3%	-6.2%
#25 CC(C)c1cc(NC(=O)c2ccccc2)cc(C(C)C)c1O
 : u	18.2%	-1.4%	-27.2%	8.0%
#26 Cc1cccc(S(=O)(=O)N(C)C[C@H]2OCc3cn(nn3)CCCC(=O)N([C@H](C)CO)C[C@@H]2C)c1
 : 2.7%	x	x	20.3%	x
#27 Cc1ccc(C(=O)Nc2cccc(C(=O)NC3CCCCC3)c2)cc1
 : u	x	-8.8%	23.1µM*	x
#28 O=C(Nc1cccc(C(=O)NC2CC2)c1)c1ccccc1
 : 0.4%	x	2.5%	5.9%	x
#29 COC(=O)c1sc(SC)c2c1CC(C)(C)C/C2=N/O
 : u	0.3%	-1.7%	-12.1%	-2.9%
#30 O=C(Oc1ccccc1)N1CCC2(CCCN(c3cccc(-c4ccccc4)c3)C2)CC1
 : u	x	x	-29.6%	x
#31 COC(=O)N1CCC2(CC1)CN(c1cccc(-c3ccccc3)c1)C2
 : 18.4µM*	x	x	-29.8%	x
#32 CC(=O)N1CCC[C@@]2(CCN(c3ccccc3)C2)C1
 : -20.8%	x	x	-6.1%	x
#33 CC(=O)N1CCC2(CCCN(c3cccc(-c4ccccc4)c3)C2)CC1
 : u	x	x	16.4µM*	x
#34 CC(=O)N1CCC2(CCCN(c3ccc(-c4ccccc4)cc3)C2)CC1
 : 16.4µM*	x	x	u	x
#35 CCOC(=O)C(Cc1ccccc1)C(=O)Nc1cccc(C)c1 (stereo not given)
 : -10.1%	-0.2%	5.4%	3.1%	-5.3%
#36 CCOC(=O)C1(C)CCCN1C(=O)c1ccc2ccccc2c1 (stereo not given)
 : 18.4µM*	x	x	u	x
#37 CCOC(=O)C1(C)CCCCN1C(=O)c1cccc(Cl)c1 (stereo not given)
 : 14.6µM*	x	x	20.6µM*	x
#38 CCOC(=O)C1(C)CCCN1C(=O)c1ccc(C(=O)OC)cc1 (stereo not given)
 : -26.7%	x	x	-16.1%	x
#39 CCOC(=O)C1(C)CCCCN1C(=O)c1ccc(F)c(C)c1 (stereo not given)
 : u	x	x	-66.4%	x
#40 Cc1ccc(O)c(C2=Nc3ccccc3N=C(c3cccc([N+](=O)[O-])c3)C2)c1
 : u	-27.8%	9.7%	u	5.3%
#41 CC(C)CC(=O)Nc1ccnn1C1CCN(C(=O)c2ccc(Cl)cc2F)CC1
 : u	-2.8%	0.6%	u	2.9%
#42 CCN(CC(=O)Nc1ccc(NC(C)=O)cc1)C(=O)CCCOc1ccc(C(C)(C)C)cc1
 : 23.1µM*	x	-10.3%	18.4µM*	x
#43 CCN(CC(=O)NCc1cccs1)C(=O)CCCOc1ccc(C(C)(C)C)cc1
 : u	x	-4.3%	u	-8.4%
#44 O=C(N/N=C/c1c[nH]c2ccc(Br)cc12)c1ccn(Cc2ccc(Cl)cc2)n1
 : 20.6µM*	17.9%	-9.6%	u	4.4%
#45 O=C(N/N=C/c1c[nH]c2ccccc12)c1ccn(Cc2ccc(Cl)cc2Cl)n1
 : u	-2.5%	-13.3%	-20.7%	7.4%
#46 S=C(NCCc1ccccc1)Nc1ccc(Br)cc1
 : 23.1µM*	-36.7%	-0.2%	u	5.4%
#47 COC(=O)Cc1ccc(NC(=S)NCCC(C)C)cc1
 : -6.6%	-25.6%	1.5%	-1.8%	2.5%
#48 CC(C)CCNC(=S)Nc1ccc(Br)cc1
 : 16.4µM*	10.4%	0.5%	u	2.6%
#49 Cc1ccc2c(c1)C(=O)N1[C@H]3c4ccccc4OC[C@@H]3[C@H](c3ccccc3)[C@]1(C)C(=O)N2
 : u	x	-43.5%	u	2.0%
#50 COc1ccc2c(c1)[C@@H]1[C@H](CO2)[C@H](c2ccccc2)[C@]2(C)C(=O)Nc3ccc(C)cc3C(=O)N12
 : u	x	11.0%	18.4µM*	4.4%
